# Assay results from US7732457B2, “Amino-pyridines as inhibitors of β-secretase” (Wyeth LLC, priority 2005, dated 2010).
# Chains of the proteins cited; added tags and fusions are not shown. Residues count along the entry.
# UniProt P56817, 46-501: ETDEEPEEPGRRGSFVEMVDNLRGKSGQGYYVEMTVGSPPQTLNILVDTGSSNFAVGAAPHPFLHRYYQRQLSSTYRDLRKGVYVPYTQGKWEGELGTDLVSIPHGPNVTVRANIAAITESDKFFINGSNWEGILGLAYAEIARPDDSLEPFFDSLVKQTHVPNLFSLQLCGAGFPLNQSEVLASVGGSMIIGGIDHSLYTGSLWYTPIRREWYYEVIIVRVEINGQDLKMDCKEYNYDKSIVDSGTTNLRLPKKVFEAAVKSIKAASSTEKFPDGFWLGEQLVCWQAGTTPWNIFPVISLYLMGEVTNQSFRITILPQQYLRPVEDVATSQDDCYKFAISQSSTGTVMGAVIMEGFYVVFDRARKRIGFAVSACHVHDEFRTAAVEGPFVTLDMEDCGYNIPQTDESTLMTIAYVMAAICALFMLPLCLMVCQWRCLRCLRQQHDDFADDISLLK
# Molecular target: human BACE1 (Homo sapiens, UniProt P56817)
# Assay: BACE-1 fluorescent kinetic assay (cleavage of peptide substrate WABC-6)
# Type: biochemical
# Conditions: 10 nM enzyme, 25 μM substrate WABC-6, Na-Acetate pH 4.5, room temperature
# Description: Evaluation of BACE-1 Binding Affinity of Test Compounds
# Fluorescent Kinetic Assay
# Dilution and mixing steps: total reaction volume: 100 μL
# 100 μM substrate dilution in 1×PBS was prepared, and
# Fluorescence Readings: Readings at λex 320 nm and λem 420 nm are taken every 40 sec for 30 min at room temperature and the linear slope for substrate cleavage rate (vi) determined.
substance,measurement,value
2-{2-Amino-6-[2-(2-chloro-phenyl)-5-(4-pentyloxy-phenyl)-pyrrol-1-ylmethyl]-pyridin-3-yloxy}-ethanol hydrochloride [Example 46],IC50,110 to 1000 nM
